Publication PMC4641156, “Evaluation of a Novel Tc-99m Labelled Vitamin B12 Derivative for Targeting Escherichia coli and Staphylococcus aureus In Vitro and in an Experimental Foreign-Body Infection Model” (Molecular Imaging and Biology, 2015)

Columns and labels:
[1] = Biodistribution after i.v. injection in tissue cage mouse model (organs, tissues, cages overall)
Protocol: (§1) C57Bl/6 mice from in-house breeding or purchased from Charles River Laboratories GmbH (Sulzfeld, Germany) were housed in the Animal Facility of the Department of Biomedicine, University Hospital, Basel, Switzerland. Experiments were performed in accordance to the regulations of Swiss veterinary law. The Institutional Animal Care and Use Committee approved the study protocol. Drinking water and standard laboratory food pellets (CR) were provided ad libitum. To reduce interference of high vitamin B12 level in mice, animals randomized for Cbl biodistribution studies were fed with a vitamin B12-reduced diet (Provimi Kliba AG, Kaiseraugst, Switzerland) beginning at the age of 10 weeks. At the age of 12 weeks, one sterile polytetrafluoroethylene (Teflon) tube (32 × 10 mm), perforated by 130 regularly spaced holes of 1 mm diameter, was aseptically implanted into the back of each mouse, as previously described. Each cage was weighted and numbered before implantation. Two weeks after surgery, clips were removed from healed wounds, and sterility of the cage was confirmed by culture of aspirated cage fluid. On the following day, 5 × 10^5 CFU of E. coli or 5 × 10^6 CFU of S. aureus, resuspended in 200 μl of 0.9 % saline, were injected into cages. Sterile 0.9 % saline was injected in cages in animals used as negative controls.
The two different experimental set-up of biodistribution were adapted to the known radiopharmaceutical binding/non-binding to plasma protein, persistence in organs and tissues and half-life of the labelling radioisotope.
(§2) Accumulation of radiopharmaceuticals in cage fluids was measured by resuspending 100 μl of aspirated fluid in 1 ml PBS and counted in a gamma counter. The percentage of injected dose (% IDTCF/ml) was calculated as measured CPM normalized per 1 ml cage fluid and divided by the CPM0 (injected dose). For determination of radiopharmaceutical biodistribution, mice were sacrificed with an intraperitoneal injection of 50–80 μl saline solution of pentothal (100 mg/ml). Blood was collected by cardiac puncture, and mice were perfused with 0.9 % saline for around 5 min. Following, tissues were dissected, weighted and collected into test tubes for γ-counter (blood, heart, liver, spleen, stomach, kidneys, lungs, intestine, muscle, bone and cage). The percentage of injected dose (% IDtissue/g) was calculated as CPM associated to each organ divided by its weight in grams and by the CPM0.

[2] = Distribution into sterile (non-infected) tissue cages and cage fluids; conditions: for Cage—sterile, mean % ID/g tissue ± SD: explanted sterile cage
Protocol: as §1, §2

E. coli-infected cages = experiment: Distribution into E. coli-infected tissue cages and cage fluids; conditions: for Cage—E. coli, mean % ID/g tissue ± SD: explanted E. coli-infected cage
Protocol: (§3) For in vivo studies, overnight cultures were prepared in 5 ml tryptic soy broth (TSB), incubated at 37 °C for 18–20 h. Bacterial suspensions were then washed three times, resuspended in 5 ml of sterile 0.9 % saline and diluted.
as §1, §2

S. aureus-infected cages = experiment: Distribution into S. aureus-infected tissue cages and cage fluids; conditions: for Cage—S. aureus, mean % ID/g tissue ± SD: explanted S. aureus-infected cage
Protocol: as §3, §1, §2

## [^99mTc]PAMA(4)-cyanocobalamin [[^99mTc]PAMA(4)-Cbl]
[1]; 30 min after i.v. injection
  Blood, mean % ID/g tissue ± SD: 1.79 ± 0.05 % ID/g tissue
  Bone, mean % ID/g tissue ± SD: 0.74 ± 0.05 % ID/g tissue
  Heart, mean % ID/g tissue ± SD: 0.90 ± 0.07 % ID/g tissue
  Intestine, mean % ID/g tissue ± SD: 1.81 ± 0.14 % ID/g tissue
  Kidneys, mean % ID/g tissue ± SD: 15.66 ± 1.88 % ID/g tissue
  Liver, mean % ID/g tissue ± SD: 5.75 ± 0.86 % ID/g tissue
  Lungs, mean % ID/g tissue ± SD: 2.81 ± 0.51 % ID/g tissue
  Muscle, mean % ID/g tissue ± SD: 0.38 ± 0.03 % ID/g tissue
  Spleen, mean % ID/g tissue ± SD: 1.48 ± 0.18 % ID/g tissue
  Stomach, mean % ID/g tissue ± SD: 1.73 ± 0.30 % ID/g tissue
[1]; 4 h after i.v. injection
  Blood, mean % ID/g tissue ± SD: 0.15 ± 0.02 % ID/g tissue
  Bone, mean % ID/g tissue ± SD: 0.22 ± 0.01 % ID/g tissue
  Heart, mean % ID/g tissue ± SD: 0.33 ± 0.07 % ID/g tissue
  Intestine, mean % ID/g tissue ± SD: 1.52 ± 0.51 % ID/g tissue
  Kidneys, mean % ID/g tissue ± SD: 13.47 ± 1.79 % ID/g tissue
  Liver, mean % ID/g tissue ± SD: 2.98 ± 0.45 % ID/g tissue
  Lungs, mean % ID/g tissue ± SD: 1.09 ± 0.26 % ID/g tissue
  Muscle, mean % ID/g tissue ± SD: 0.09 ± 0.01 % ID/g tissue
  Spleen, mean % ID/g tissue ± SD: 0.60 ± 0.07 % ID/g tissue
  Stomach, mean % ID/g tissue ± SD: 0.49 ± 0.23 % ID/g tissue
[1]; 24 h after i.v. injection
  Blood, mean % ID/g tissue ± SD: 0.02 ± 0.10 % ID/g tissue
  Bone, mean % ID/g tissue ± SD: 0.08 ± 0.01 % ID/g tissue
  Heart, mean % ID/g tissue ± SD: 0.11 ± 0.01 % ID/g tissue
  Intestine, mean % ID/g tissue ± SD: 0.59 ± 0.05 % ID/g tissue
  Kidneys, mean % ID/g tissue ± SD: 11.19 ± 1.35 % ID/g tissue
  Liver, mean % ID/g tissue ± SD: 0.92 ± 0.90 % ID/g tissue
  Lungs, mean % ID/g tissue ± SD: 0.29 ± 0.10 % ID/g tissue
  Muscle, mean % ID/g tissue ± SD: 0.03 ± 0.01 % ID/g tissue
  Spleen, mean % ID/g tissue ± SD: 0.22 ± 0.03 % ID/g tissue
  Stomach, mean % ID/g tissue ± SD: 0.44 ± 0.14 % ID/g tissue
[2]; 30 min p.i., i.v., cage fluid
  Maximum % IDTCF/ml in cage fluid, sterile cages: 2.3 ± 0.39%
[2]; 30 min after i.v. injection
  Cage—sterile, mean % ID/g tissue ± SD: 2.37 ± 0.16 % ID/g tissue
[2]; 4 h after i.v. injection
  Cage—sterile, mean % ID/g tissue ± SD: 0.87 ± 0.25 % ID/g tissue
[2]; 24 h after i.v. injection
  Cage—sterile, mean % ID/g tissue ± SD: 0.04 ± 0.01 % ID/g tissue
E. coli-infected cages; 30 min p.i., i.v., cage fluid
  Maximum % IDTCF/ml in cage fluid, cages infected with E. coli: 1.33 ± 0.26%
E. coli-infected cages; 24 h p.i.
  Cage fluid/blood ratio, mice infected with E. coli: 6.31 ± 2.92
E. coli-infected cages; 24 h p.i., explanted cages, higher than sterile
  % ID/g in explanted E. coli-infected cages relative to sterile cages: ~10 fold
E. coli-infected cages; 30 min after i.v. injection
  Cage—E. coli, mean % ID/g tissue ± SD: 0.76 ± 0.21 % ID/g tissue
E. coli-infected cages; 4 h after i.v. injection
  Cage—E. coli, mean % ID/g tissue ± SD: 0.84 ± 0.23 % ID/g tissue
E. coli-infected cages; 24 h after i.v. injection
  Cage—E. coli, mean % ID/g tissue ± SD: 0.37 ± 0.18 % ID/g tissue
S. aureus-infected cages; 30 min p.i., i.v., cage fluid
  Maximum % IDTCF/ml in cage fluid, cages infected with S. aureus: 2.06 ± 0.79%
S. aureus-infected cages; 24 h p.i.
  Cage fluid/blood ratio, mice infected with S. aureus: 13.48 ± 2.75
S. aureus-infected cages; 30 min after i.v. injection
  Cage—S. aureus, mean % ID/g tissue ± SD: 1.80 ± 0.91 % ID/g tissue
S. aureus-infected cages; 4 h after i.v. injection
  Cage—S. aureus, mean % ID/g tissue ± SD: 1.47 ± 0.38 % ID/g tissue
S. aureus-infected cages; 24 h after i.v. injection
  Cage—S. aureus, mean % ID/g tissue ± SD: 0.14 ± 0.06 % ID/g tissue
